Assay results published in PMC11532403, “First-in-human, phase 1 dose-escalation and dose-expansion study of a RET inhibitor SY-5007 in patients with advanced RET-altered solid tumors” (Signal Transduction and Targeted Therapy, 2024).

What was measured:
VEGFR2 = assay: Enzymatic selectivity against VEGFR2; format: biochemical
Caco-2 permeability = format: in vitro ADME; settings: human, read-out: Papp ratio (BL/AP)
Description: To explore the potential drug-drug interactions (DDIs) induced by SY-5007, we performed a series of in vitro studies.

SMILES: COc1ccc(CN2C3CC2CN(c2ccc(-c4cc(N5CC(C)(O)C5)cn5ncc(C#N)c45)cn2)C3)cn1 [SY-5007, 6-(3-hydroxy-3-methylazetidin-1-yl)-4-(6-(6-((6-methoxypyridin-3-yl)methyl)-3,6-diazabicyclo[3.1.1]heptan-3-yl)pyridin-3-yl)pyrazolo[1,5-a]pyridine-3-carbonitrile]
- Selectivity for VEGFR2 (VEGFR2): more than 10 fold
- efflux ratio (Caco-2 permeability): > 2
